# Assays:
# By UniProt entry, the sequences of proteins in these tests, tags left out.
# UniProt P33535, whole entry: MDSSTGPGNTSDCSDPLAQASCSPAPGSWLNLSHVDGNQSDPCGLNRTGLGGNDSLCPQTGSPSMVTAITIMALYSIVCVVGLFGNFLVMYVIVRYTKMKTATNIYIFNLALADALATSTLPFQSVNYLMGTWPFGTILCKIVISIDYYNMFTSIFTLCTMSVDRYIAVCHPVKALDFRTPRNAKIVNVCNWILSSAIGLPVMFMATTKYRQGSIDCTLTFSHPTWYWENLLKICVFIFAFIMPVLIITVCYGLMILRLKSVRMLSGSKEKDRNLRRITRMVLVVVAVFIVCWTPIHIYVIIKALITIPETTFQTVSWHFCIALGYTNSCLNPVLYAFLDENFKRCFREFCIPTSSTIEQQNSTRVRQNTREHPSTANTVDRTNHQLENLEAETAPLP
# UniProt P41144, whole entry: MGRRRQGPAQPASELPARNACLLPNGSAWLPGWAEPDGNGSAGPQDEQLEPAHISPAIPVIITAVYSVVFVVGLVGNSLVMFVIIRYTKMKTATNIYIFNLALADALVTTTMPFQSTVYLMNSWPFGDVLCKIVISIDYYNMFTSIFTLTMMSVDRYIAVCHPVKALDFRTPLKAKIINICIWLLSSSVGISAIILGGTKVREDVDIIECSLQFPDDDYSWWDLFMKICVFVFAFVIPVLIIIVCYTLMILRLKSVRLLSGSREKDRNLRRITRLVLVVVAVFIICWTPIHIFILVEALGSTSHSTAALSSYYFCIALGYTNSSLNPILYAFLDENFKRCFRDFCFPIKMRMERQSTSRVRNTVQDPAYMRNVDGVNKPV
# UniProt P33533, whole entry: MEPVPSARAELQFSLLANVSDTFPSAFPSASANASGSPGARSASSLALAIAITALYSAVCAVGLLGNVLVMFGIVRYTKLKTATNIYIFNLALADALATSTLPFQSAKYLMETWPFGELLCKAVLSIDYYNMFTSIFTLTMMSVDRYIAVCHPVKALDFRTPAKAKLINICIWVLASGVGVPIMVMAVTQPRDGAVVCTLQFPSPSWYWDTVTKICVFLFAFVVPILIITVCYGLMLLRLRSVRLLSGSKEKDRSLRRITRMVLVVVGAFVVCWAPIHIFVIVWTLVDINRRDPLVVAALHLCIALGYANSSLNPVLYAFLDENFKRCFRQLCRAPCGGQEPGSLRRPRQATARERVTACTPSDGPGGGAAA
# mu opioid receptor = mu opioid receptor (Rattus norvegicus, UniProt P33535); assay: Opioid mu receptor binding (3H-DAMGO, rat brain membranes); settings: read-out: IC50 3H-DAMGO (mu), 3H-DAMGO 1 nM, 25° C., 1 hour
# kappa opioid receptor = kappa opioid receptor (Cavia porcellus, UniProt P41144); assay: Opioid kappa receptor binding (3H-U69593, guinea pig brain membranes); settings: read-out: IC50 3H-U69593 (kappa), 3H-U69593 5 nM, 25° C., 1 hour
# delta opioid receptor = delta opioid receptor (Rattus norvegicus, UniProt P33533); assay: Opioid delta receptor binding (3H-DPDPE, rat brain membranes); settings: read-out: IC50 3H-DPDPE (delta), 3H-DPDPE 3 nM, 25° C.
# [1] = system: guinea pig ileum (opiate receptors); assay: Opioid Activity in Electrically Induced Contraction of Guinea Pig Ileum; settings: read-out: Guinea pig ileum EC50; field stimulation 0.15 Hz, 1.5 msec; cumulative dosing
structure (smiles),measurement,setting,value
CC(CCCN1C(=O)c2ccccc2S1(=O)=O)N1CCC(n2c(=O)[nH]c3ccccc32)CC1 (racemic),IC50,mu opioid receptor,0.033 µM
same,IC50,kappa opioid receptor,1.7 µM
same,IC50,delta opioid receptor,5.7 µM
same,EC50,[1],0.11 µM
